Assay results as given in patent US11197906B2, “Methods of lowering blink reflex for the treatment of dry eye disease” (Tufts Medical Center, priority 2016, dated 2021).

Target: T1, mouse CMKLR1 (Mus musculus, UniProt P97468)
T1 construct: expressed in transfected cells; host or cells: HEK293
T1 sequence (P97468 1-371): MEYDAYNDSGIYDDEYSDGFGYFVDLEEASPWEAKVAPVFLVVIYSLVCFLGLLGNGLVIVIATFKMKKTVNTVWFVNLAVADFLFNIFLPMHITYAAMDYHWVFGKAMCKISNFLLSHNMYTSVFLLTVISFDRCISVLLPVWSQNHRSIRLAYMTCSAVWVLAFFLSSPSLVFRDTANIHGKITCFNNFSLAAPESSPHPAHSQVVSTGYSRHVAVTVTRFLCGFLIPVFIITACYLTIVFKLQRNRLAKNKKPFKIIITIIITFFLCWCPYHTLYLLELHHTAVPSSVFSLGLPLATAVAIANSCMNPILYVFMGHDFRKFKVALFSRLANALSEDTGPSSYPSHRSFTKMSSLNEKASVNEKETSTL
Assay: Luciferase assay in transfected HEK293 cells, mouse CMKLR1
Assay type: cell-based
Conditions: membrane tethered construct, FIG. 4B
Method: FIG. 1 is a schematic depicting the luciferase assay. HEK293 cells were transfected for 24 hours with cDNAs encoding: a) GPCR, b) a tethered ligand (where applicable), c) a luciferase reporter gene, and d) β-galactosidase (transfection control). Luciferase activity was measured using Steadylite reagent. Luciferase data were normalized to β-galactosidase values.
FIGS. 4A-4B are graphs showing that membrane tethered chemerin activates CMKLR1.
FIGS. 5A-5D are graphs showing the luciferase activity of l-Chem149-157 and s-Chem149-157.

For “tChem149-157: membrane tethered chemerin construct encoding truncated chemerin”, the “activation of mouse CMKLR1” value was “activate”.
